In PubChem BioAssay AID652048 (National Center for Advancing Translational Sciences (NCATS), 2013):
Where “and” joins values, the source holds several entries; their conditions need not be identical. Identical values can stand only once. This is a selection; strong and weak results do not stand in their true shares. Calls of active or inactive are those of the source. Rule as the data show it: active = max activation above about 30%; inactive = the rest.

Protein sequences, listed by entry. Tags and fused reporters are not part of them.
UniProt P35462, whole entry, looked up: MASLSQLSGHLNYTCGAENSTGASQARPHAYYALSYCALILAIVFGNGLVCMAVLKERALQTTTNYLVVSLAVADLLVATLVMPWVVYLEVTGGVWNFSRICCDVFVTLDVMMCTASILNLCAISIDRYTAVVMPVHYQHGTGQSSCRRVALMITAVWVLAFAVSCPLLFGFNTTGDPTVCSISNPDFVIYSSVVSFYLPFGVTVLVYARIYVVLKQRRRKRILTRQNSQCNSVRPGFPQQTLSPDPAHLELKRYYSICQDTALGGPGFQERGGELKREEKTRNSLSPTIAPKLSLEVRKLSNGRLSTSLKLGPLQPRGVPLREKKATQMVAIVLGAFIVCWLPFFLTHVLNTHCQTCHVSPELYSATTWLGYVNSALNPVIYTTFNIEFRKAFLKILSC

Each compound was assayed against D(3) dopamine receptor (Homo sapiens) (UniProt P35462) (assay: qHTS of D3 Dopamine Receptor Agonist: qHTS). Conditions: D3R DiscoveRx beta-arrestin cells, luminescence, 90 min; hits give high values.
Text: D3 DARs represent a very important target for the treatment of several neuropsychiatric disorders. Indeed, one of the most promising therapeutic applications for the D3 DAR is in the area of addiction and related disorders. […] These findings have been observed with a number of addictive substances including cocaine, amphetamine, nicotine, and alcohol. […] Antagonism of the D3 DAR may also be therapeutic in the treatment of schizophrenia or psychosis. […] Since the D3 DAR is expressed in areas of the CNS associated with the control of mood and emotion, it has been hypothesized that selective antagonism of the D3 DAR may be effective in treating psychosis without inducing the motor side effects typically seen with D2 DAR antagonists.
This part of the project aims to discover novel agonist.
NIH Chemical Genomics Center [NCGC]
NIH Molecular Libraries Probe Centers Network [MLPCN]
Assay Submitter (PI): David Sibley, NINDS
Freshly passaged cells are plated in 1536 well white, solid bottom plates at a density of 1500 cells/well in 3microl of complete media. After an overnight incubation at 37 degrees C in 5% CO2, cells are loaded with 23nl of test compound from the compound library (as well as dopamine controls) using a 1536 pintool and incubated at 37 degrees C for 90 minutes. Two microliters of DiscoveRx reagent is then added to all cells, and they are incubated for an additional 30 - 60 minutes at room temperature. Following incubation, luminescence is measured on a ViewLux CCD-based luminometer reader using a 20 sec exposure time.
Also: 0% is about no effect.

SMILES	max activation
O=[N+]([O-])c1ccc(Nc2ccc(Oc3ccc([N+](=O)[O-])cc3[N+](=O)[O-])cc2)c([N+](=O)[O-])c1	inactive: 2.68%
O=P(Nc1ccccn1)(c1cccc2ccccc12)c1cccc2ccccc12	inactive: -1.15%
Cc1cc(SC(NC=O)C(Cl)(Cl)Cl)ncn1 (stereo unspecified)	inactive: 0.0745%
CCOC(=O)Nc1cccc([As](=O)(O)O)c1	inactive: -5.24%
CCCCOc1ccc(C(=O)NCC2(N3CCCCC3)CCCCC2)cc1OC	inactive: -15.2%
Cc1cc(SC(NC(=O)c2ccccc2)C(Cl)(Cl)Cl)nc(C(C)C)n1 (stereo unspecified)	inactive: 2.41%
COP(=O)(OC)N1CC1c1ccccc1 (stereo unspecified)	inactive: 2.3%
CC1CCNP(=O)(N(CCCl)CCCl)O1 (stereo unspecified)	inactive: 1.33%
CCOC(=O)Nc1ccc([As](=O)(O)O)c(O)c1	inactive: -9.47%
O=C(O)C(O)c1ccc(N(CCCl)CCCl)cc1 (stereo unspecified)	inactive: 1.3%
CCC(C)N(CC(C)C)C(=S)SC(NC(C)=O)C(Cl)(Cl)Cl (stereo unspecified)	inactive: 2.89%
CCOC(=O)c1ccc(NC(=O)C(C)(CCl)SC)cc1 (stereo unspecified)	inactive: -3.17%
O=C(OC1CN2CCC1CC2)c1cccc([N+](=O)[O-])c1 (stereo unspecified)	inactive: -1.93%
CSc1ccc(Nc2c([N+](=O)[O-])cc([N+](=O)[O-])cc2[N+](=O)[O-])cc1	inactive: -10.1%
O=C(COc1ccccc1)OC1CN2CCC1CC2 (stereo unspecified)	inactive: 0.998%
O=C(Nc1ccncc1[N+](=O)[O-])c1ccc([N+](=O)[O-])cc1[N+](=O)[O-]	inactive: 0.627%
O=C(O)C(=O)c1ccc(N(CCCl)CCCl)cc1	inactive: -11.1%
COP1(=S)c2c(C)nn(CCC#N)c2N=C(c2ccc(F)cc2)N1C (stereo unspecified)	inactive: -7.51%
COC(=O)C1(C)COP(=O)(N2CCCC2)OC1 (stereo unspecified)	inactive: -3.76%
COc1ccc(N/C(=N/P(=O)(N2CCOCC2)N2CCOCC2)N2CCOCC2)cc1	inactive: 4.59%
O=[N+]([O-])c1cc(Oc2ccc([N+](=O)[O-])cc2C(F)(F)F)cc([N+](=O)[O-])c1	inactive: 7.46%

SMILES	max activation
COc1ccc2nc(NP(=O)(c3ccccc3)c3ccccc3)sc2c1	inactive: 0.813%
COc1cc(I)ccc1[As](=O)(O)O	inactive: 3.31%
O=P1(N(CCCl)CCCl)OCCCN1CCCl (stereo unspecified)	inactive: -0.648%
O=P1(N(CCCl)CCCl)Nc2ccccc2N1	inactive: 2.95%
O=C(OC1CN2CCC1CC2)C12CC3CC(CC(C3)C1)C2 (stereo unspecified)	inactive: 3.11%
Cc1cc(=O)[nH]c(N[N+](=O)[O-])n1	inactive: -4.53%
Cc1c2c(nc3ccccc13)SC(C(Cl)Cl)C2 (stereo unspecified)	inactive: -2.52%
CC(C)NC(=O)NP(=O)(Oc1ccccc1)Oc1ccccc1	inactive: 1.77%
O=C(OC1CN2CCC1CC2)c1cccc2[nH]cnc12 (stereo unspecified)	inactive: -3.92%
CCN(CC)C(=S)SC(NC=O)C(Cl)(Cl)Cl (stereo unspecified)	inactive: -2.08%
O=[N+]([O-])c1cc([N+](=O)[O-])c(-c2ccn[nH]2)s1	inactive: -3.8%
COC(=O)C1(C)COP(=O)(N2CCCCCC2)OC1 (stereo unspecified)	inactive: 7.09%
CC(C)c1ccc(OP(=O)(Nc2ccccn2)Oc2ccccc2F)cc1 (stereo unspecified)	inactive: 4.99%
ClCCSc1nnc(-c2cccnc2)o1	inactive: 1.64%
Cc1ccc2nc3c(c(C)c2c1)CC(C(Cl)Cl)S3 (stereo unspecified)	inactive: 6.11%
[N-]=[N+]=NC1CCCCC1NC(=O)c1cc([N+](=O)[O-])cc([N+](=O)[O-])c1 (stereo unspecified)	inactive: -9.1%
Cc1ccc(OP(=O)(Nc2ccc([N+](=O)[O-])cn2)Oc2ccc(C)cc2)cc1	inactive: 1.77%
O=[As](O)(c1ccc(O)cc1)c1ccccc1O	inactive: -11.2%
C[As](=O)(O)c1cccc(C(=O)O)c1	inactive: -0.361%
O=[N+]([O-])c1ccc(-c2cc([N+](=O)[O-])c(O)c([N+](=O)[O-])c2)cc1	inactive: -12.8%
COc1cc(C(=O)NCC2(N3CCOCC3)CCCCC2)ccc1OCC(C)C	inactive: -15.4%

SMILES	max activation
O=[N+]([O-])c1ccc2c(c1)nnn2O	inactive: -13.6%
CN(C)C(=O)c1cc([N+](=O)[O-])cc2c1-c1c(cc([N+](=O)[O-])cc1[N+](=O)[O-])C2=O	inactive: -15.6%
CN(C(=O)Cc1ccc(Cl)c(Cl)c1)[C@H]1CC[C@@]2(CCCO2)C[C@@H]1N1CCCC1	inactive: -2.99% and inactive: -16.3%
N#CCCN(C(=O)COC(=O)C(O)(c1ccccc1)c1ccccc1)c1ccc(F)cc1	inactive: -20.9%
CCOP1(=S)c2c(C)nn(CCC#N)c2N=C(c2ccc(F)cc2)N1C (stereo unspecified)	inactive: 2.8%
CN(C(=O)Cc1ccccc1)[C@@H]1CC[C@]2(CCCO2)C[C@H]1N1CCCC1	inactive: 0.834%
NC(=O)Nc1ccc([As](=O)(O)O)cc1	inactive: -10.7% and inactive: -5.5%
Nc1ccccc1[As](=O)(O)c1ccccc1	inactive: 12.9%
O=C(O)COc1ccc([As](=O)(O)O)cc1[N+](=O)[O-]	inactive: -19.1%
CS(=O)(=O)c1cc([N+](=O)[O-])c2no[n+]([O-])c2c1	inactive: 0.941%
CCOP1(=S)c2c(C)nn(CCC#N)c2N=C(c2ccccc2F)N1C (stereo unspecified)	inactive: -4.95%
O=P(Nc1nccs1)(Oc1ccccc1)Oc1ccccc1	inactive: 3.44%
O=P(Nc1nccs1)(c1ccccc1)c1nc2ccccc2s1 (stereo unspecified)	inactive: -10.2%
COc1cc(C2NCCC3(OCCO3)C2(C)C)cc(OC)c1OC (stereo unspecified)	inactive: -20.9%
CCOP(=O)(Nc1cccc2ccccc12)OCC	inactive: -8.94%
CCCOP(=S)(Nc1nc(N)cc(=O)[nH]1)OCCC	inactive: -1.64%
Nc1cccc2c([As](=O)(O)O)cccc12	inactive: 0.665%
Cc1ccc(NCCc2c([N+](=O)[O-])cc([N+](=O)[O-])cc2[N+](=O)[O-])cc1	inactive: -4.6%
Cc1cccc(OCC(=O)OC2CN3CCC2CC3)c1 (stereo unspecified)	inactive: 1.93%
